From US9775844B2, “Heterocyclic compounds and uses thereof” (Infinity Pharmaceuticals, Inc., priority 2014, dated 2017)

By UniProt entry, the sequences of proteins in these tests, tags left out. Where a name states a change or a piece, a line headed by the entry shows the natural chain unless it says otherwise.
UniProt P42336, whole entry: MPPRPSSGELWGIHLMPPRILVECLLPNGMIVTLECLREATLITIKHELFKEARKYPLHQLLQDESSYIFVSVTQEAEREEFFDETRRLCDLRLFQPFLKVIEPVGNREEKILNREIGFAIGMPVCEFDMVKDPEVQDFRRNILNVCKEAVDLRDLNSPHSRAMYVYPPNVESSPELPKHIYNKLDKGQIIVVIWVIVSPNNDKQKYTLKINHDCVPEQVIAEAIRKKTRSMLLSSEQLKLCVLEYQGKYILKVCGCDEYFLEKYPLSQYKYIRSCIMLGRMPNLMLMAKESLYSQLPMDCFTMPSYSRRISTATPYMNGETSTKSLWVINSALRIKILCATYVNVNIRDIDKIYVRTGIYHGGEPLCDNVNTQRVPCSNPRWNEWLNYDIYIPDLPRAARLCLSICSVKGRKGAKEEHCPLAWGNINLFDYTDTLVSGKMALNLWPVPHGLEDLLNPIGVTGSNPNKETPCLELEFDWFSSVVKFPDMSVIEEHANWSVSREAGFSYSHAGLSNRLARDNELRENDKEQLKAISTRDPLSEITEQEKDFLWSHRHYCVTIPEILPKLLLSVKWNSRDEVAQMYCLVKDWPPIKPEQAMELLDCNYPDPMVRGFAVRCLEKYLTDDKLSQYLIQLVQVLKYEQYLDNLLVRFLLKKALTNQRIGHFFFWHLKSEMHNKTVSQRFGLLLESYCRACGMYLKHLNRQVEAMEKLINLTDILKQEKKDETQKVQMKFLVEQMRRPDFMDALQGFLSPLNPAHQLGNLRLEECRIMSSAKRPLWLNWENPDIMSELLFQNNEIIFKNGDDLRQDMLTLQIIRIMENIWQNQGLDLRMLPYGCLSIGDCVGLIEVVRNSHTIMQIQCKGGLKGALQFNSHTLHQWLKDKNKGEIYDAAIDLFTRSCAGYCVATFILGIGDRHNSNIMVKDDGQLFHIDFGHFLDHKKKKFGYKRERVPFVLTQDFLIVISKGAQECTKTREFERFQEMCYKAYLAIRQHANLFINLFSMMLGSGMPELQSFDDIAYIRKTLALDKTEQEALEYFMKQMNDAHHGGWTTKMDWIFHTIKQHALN
UniProt O00329: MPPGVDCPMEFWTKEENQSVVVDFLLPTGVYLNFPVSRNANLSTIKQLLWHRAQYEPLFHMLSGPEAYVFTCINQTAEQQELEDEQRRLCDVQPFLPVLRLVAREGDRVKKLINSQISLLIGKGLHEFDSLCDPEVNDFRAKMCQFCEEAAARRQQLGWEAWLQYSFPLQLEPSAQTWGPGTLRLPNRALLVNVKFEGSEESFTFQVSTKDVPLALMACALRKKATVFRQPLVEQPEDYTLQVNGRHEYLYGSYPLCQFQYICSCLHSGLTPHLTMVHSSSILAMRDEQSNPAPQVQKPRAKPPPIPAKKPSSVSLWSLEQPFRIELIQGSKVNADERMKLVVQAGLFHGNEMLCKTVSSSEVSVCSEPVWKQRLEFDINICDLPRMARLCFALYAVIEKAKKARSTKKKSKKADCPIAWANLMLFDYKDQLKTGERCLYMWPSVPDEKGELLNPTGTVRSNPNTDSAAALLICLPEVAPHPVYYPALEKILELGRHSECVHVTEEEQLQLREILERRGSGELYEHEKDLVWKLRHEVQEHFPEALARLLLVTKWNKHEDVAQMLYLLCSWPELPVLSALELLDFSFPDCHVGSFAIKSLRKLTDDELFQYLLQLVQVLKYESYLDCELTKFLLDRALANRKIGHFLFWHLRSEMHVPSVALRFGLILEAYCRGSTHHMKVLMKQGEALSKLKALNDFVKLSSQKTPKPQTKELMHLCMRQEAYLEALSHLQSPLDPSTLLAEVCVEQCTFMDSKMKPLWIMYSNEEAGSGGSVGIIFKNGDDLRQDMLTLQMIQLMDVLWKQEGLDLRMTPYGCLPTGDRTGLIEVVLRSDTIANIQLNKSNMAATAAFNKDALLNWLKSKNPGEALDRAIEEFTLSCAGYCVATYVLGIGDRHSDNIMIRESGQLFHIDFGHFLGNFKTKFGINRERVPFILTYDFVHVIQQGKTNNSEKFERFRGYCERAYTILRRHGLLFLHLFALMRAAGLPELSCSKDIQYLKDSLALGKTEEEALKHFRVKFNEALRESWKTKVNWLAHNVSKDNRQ
UniProt P42338: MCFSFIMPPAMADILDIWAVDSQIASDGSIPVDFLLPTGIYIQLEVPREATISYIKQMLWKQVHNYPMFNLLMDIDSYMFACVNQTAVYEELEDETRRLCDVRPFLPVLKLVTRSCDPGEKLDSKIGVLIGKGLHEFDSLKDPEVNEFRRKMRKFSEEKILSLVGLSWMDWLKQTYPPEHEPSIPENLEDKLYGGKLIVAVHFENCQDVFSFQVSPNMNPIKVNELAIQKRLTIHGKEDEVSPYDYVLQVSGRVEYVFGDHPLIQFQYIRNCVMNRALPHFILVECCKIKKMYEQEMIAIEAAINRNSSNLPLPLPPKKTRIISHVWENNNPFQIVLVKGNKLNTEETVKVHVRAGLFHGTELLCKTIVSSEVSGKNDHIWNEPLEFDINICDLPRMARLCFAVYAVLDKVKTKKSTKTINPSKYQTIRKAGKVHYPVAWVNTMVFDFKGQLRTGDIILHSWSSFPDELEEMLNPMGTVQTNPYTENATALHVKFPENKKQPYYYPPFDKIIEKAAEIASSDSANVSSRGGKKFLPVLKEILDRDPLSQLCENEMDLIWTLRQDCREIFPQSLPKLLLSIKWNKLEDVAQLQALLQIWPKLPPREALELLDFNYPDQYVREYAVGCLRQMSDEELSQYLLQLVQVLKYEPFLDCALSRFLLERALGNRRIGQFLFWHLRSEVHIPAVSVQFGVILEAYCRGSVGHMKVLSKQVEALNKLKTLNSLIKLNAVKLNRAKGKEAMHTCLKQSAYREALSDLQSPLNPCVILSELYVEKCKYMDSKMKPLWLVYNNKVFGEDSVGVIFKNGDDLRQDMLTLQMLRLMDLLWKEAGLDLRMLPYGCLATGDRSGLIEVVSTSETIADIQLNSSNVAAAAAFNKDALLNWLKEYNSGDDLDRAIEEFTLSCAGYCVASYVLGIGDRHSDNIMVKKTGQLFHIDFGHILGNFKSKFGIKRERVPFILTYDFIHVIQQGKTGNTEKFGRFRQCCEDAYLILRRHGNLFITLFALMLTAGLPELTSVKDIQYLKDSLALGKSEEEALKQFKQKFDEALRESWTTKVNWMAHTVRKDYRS

Tests used:
Test in all cases: PI3-Kinase Promega ADP-Glo Max assay
Type in all cases: biochemical
PI3K α = PI3K α (Homo sapiens (Human), UniProt P42336)
PI3K δ = PI3K δ (Homo sapiens (Human), UniProt O00329)
PI3K β = PI3K β (Homo sapiens (Human), UniProt P42338)

IC50 (PI3K δ) [µM]	IC50 (PI3K β) [µM]	SMILES	IC50 (PI3K α) [µM]
–	–	C[C@H](NC(=O)c1c(N)nn2cccnc12)c1cc2cccc(/C=C\c3cnn(C)c3)c2c(=O)n1-c1ccccc1 [Compound 53]	5 to 10
1 to 5	1 to 5	C[C@H](NC(=O)c1c(N)nn2cccnc12)c1cc2cccc(C#Cc3cn(C)cn3)c2c(=O)n1-c1ccccc1 [Compound 81]	1 to 5
–	–	C[C@H](NC(=O)c1c(N)nn2cccnc12)c1cc2cccc(/C=C/c3cnn(C)c3)c2c(=O)n1-c1ccccc1 [Compound 52]	5 to 10
–	5 to 10	C[C@H](NC(=O)c1c(N)nn2cccnc12)c1cc2cccc(C#Cc3ccc(=O)[nH]c3)c2c(=O)n1-c1ccccc1 [Compound 33]	–
